# ChEMBL document CHEMBL1124824, “Synthesis and biological activity of atrial natriuretic factor analogues: effect of modifications to the disulfide bridge” (J Med Chem, 1990)
# Key:
# [1] = biological target: T1, Atrial natriuretic peptide receptor 3 (Mus musculus, UniProt P70180); assay: Binding affinity was determined based on the displacement of [125]r-ANF (99-126) from binding sites on mouse fibroblasts (NIH 3T3) cells (Atrionatriuretic peptide receptor C).
# T1 sequence (P70180 whole entry): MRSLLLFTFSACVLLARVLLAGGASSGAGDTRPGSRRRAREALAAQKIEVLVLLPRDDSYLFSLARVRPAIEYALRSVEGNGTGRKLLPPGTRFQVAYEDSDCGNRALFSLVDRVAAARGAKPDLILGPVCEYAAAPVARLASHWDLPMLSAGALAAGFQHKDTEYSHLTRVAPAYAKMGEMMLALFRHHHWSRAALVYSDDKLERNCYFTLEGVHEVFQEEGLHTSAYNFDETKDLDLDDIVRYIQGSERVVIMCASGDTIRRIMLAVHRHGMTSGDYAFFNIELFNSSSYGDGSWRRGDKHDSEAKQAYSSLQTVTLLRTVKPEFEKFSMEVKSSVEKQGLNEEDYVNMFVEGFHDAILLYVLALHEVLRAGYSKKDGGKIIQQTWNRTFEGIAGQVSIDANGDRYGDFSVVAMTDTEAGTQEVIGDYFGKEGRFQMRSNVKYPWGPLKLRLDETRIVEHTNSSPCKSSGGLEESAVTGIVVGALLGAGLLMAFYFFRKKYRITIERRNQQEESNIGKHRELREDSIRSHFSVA
# [2] = organism: Oryctolagus cuniculus; assay: Compound was tested for the inhibition of the stimulated contractions of the superfused rabbit thoracic aortic rings.; assay type: functional, Aorta
# Method in brief: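 Rabbit thoracic aorta rings (4 mm) were held isometrically at 10-g resting tension, superfused and precontracted with phenylephrine. Test peptide was added to the superfusate above the tissue in successively higher doses after each recovery. Doses were based on peptide content. EC50 came from the dose-response curve, mean of three determinations ± SEM.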
# [3] = biological target: T2, Atrial natriuretic peptide receptor 2 (Bos taurus, UniProt P46197); assay: Binding affinity was determined based on the displacement of [125]r-ANF (99-126) from binding sites on bovine adrenal zona glomerulosa cell membranes (Atrionatriuretic peptide receptor B)
# T2 sequence (P46197 whole entry): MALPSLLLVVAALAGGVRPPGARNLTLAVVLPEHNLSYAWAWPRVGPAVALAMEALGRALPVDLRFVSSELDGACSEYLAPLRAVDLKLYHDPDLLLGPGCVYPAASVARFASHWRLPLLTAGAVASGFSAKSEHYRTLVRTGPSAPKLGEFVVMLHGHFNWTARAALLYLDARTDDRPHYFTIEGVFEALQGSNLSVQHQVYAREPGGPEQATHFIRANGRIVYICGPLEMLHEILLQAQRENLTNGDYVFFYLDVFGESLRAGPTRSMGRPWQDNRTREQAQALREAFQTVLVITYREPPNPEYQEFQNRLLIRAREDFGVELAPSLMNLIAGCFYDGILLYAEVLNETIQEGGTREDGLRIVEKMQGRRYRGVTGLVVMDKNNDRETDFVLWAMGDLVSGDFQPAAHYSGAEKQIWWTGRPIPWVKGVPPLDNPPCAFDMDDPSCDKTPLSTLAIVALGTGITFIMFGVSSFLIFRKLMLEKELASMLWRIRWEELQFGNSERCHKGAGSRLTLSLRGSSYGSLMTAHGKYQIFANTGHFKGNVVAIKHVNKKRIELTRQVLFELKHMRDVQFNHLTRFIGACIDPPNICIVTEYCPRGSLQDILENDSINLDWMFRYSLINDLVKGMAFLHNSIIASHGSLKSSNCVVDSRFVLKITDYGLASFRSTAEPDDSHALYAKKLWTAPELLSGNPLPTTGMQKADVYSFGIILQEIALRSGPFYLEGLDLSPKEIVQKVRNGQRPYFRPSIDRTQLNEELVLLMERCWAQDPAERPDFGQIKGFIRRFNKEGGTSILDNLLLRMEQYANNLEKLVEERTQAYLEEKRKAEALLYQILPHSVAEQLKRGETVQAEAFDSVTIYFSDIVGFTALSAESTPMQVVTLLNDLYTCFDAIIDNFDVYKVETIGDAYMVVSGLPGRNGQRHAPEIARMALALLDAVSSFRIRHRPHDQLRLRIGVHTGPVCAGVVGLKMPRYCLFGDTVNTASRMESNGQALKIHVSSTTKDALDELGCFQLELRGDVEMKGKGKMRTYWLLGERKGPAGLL
compound,measurement,setting,value
CC[C@H](C)[C@@H]1NC(=O)[C@H](CCCN=C(N)N)NC(=O)[C@H](CC(=O)O)NC(=O)[C@H]([C@@H](C)CC)NC(=O)[C@H](CCCN=C(N)N)NC(=O)CNC(=O)CNC(=O)[C@H](Cc2ccccc2)NC(=O)[C@@H](NC(=O)[C@H](CO)NC(=O)[C@H](CO)NC(=O)[C@H](CCCN=C(N)N)NC(=O)[C@H](CCCN=C(N)N)NC(=O)[C@H](CC(C)C)NC(=O)[C@@H](N)CO)CSSC[C@@H](C(=O)N[C@@H](CC(N)=O)C(=O)N[C@@H](CO)C(=O)N[C@@H](Cc2ccccc2)C(=O)N[C@@H](CCCN=C(N)N)C(=O)N[C@@H](Cc2ccc(O)cc2)C(=O)O)NC(=O)CNC(=O)[C@H](CC(C)C)NC(=O)CNC(=O)[C@H](CO)NC(=O)[C@H](CCC(N)=O)NC(=O)[C@H](C)NC(=O)CNC1=O,IC50,[1],0.13 nM
same,EC50,[2],3.8e-11 M 50ul-1
same,IC50,[3],0.043 nM
